In ChEMBL document CHEMBL1130213, “Synthesis and pharmacological characterization of aminocyclopentanetricarboxylic acids: new tools to discriminate between metabotropic glutamate receptor subtypes” (J Med Chem, 1997) one finds EC50 data, which are given here for four molecules.

By UniProt entry, the sequences of proteins in these tests, tags left out. Where a name states a change or a piece, a line headed by the entry shows the natural chain unless it says otherwise.
UniProt Q13255: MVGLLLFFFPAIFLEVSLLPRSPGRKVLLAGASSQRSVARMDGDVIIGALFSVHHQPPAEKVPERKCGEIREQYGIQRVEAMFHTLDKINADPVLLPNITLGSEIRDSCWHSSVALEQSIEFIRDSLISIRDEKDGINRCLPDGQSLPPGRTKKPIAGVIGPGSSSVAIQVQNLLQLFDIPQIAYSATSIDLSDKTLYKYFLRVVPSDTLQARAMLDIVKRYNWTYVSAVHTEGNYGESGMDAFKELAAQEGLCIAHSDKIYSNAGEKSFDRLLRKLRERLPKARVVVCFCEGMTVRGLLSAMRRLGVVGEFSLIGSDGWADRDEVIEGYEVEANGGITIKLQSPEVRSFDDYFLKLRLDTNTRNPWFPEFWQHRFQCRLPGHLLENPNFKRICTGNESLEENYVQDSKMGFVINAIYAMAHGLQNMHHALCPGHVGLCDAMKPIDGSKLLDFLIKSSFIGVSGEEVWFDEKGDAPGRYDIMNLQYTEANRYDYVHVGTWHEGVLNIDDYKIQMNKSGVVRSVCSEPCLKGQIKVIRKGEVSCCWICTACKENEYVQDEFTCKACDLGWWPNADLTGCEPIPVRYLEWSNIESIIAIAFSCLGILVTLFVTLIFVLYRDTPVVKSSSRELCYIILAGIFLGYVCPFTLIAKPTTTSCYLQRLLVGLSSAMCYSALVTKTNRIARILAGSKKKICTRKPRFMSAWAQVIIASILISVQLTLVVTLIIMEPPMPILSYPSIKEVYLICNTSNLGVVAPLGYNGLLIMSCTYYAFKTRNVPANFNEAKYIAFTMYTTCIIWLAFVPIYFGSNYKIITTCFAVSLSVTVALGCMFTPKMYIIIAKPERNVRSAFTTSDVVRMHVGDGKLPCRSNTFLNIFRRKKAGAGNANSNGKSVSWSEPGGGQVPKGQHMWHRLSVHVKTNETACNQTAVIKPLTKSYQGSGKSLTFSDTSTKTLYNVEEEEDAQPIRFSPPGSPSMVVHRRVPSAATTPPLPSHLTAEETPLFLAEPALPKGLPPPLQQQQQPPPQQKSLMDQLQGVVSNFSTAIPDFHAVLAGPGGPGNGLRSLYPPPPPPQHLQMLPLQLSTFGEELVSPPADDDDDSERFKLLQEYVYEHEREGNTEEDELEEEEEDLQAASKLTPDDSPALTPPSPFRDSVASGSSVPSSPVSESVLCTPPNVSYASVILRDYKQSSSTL
UniProt Q14833: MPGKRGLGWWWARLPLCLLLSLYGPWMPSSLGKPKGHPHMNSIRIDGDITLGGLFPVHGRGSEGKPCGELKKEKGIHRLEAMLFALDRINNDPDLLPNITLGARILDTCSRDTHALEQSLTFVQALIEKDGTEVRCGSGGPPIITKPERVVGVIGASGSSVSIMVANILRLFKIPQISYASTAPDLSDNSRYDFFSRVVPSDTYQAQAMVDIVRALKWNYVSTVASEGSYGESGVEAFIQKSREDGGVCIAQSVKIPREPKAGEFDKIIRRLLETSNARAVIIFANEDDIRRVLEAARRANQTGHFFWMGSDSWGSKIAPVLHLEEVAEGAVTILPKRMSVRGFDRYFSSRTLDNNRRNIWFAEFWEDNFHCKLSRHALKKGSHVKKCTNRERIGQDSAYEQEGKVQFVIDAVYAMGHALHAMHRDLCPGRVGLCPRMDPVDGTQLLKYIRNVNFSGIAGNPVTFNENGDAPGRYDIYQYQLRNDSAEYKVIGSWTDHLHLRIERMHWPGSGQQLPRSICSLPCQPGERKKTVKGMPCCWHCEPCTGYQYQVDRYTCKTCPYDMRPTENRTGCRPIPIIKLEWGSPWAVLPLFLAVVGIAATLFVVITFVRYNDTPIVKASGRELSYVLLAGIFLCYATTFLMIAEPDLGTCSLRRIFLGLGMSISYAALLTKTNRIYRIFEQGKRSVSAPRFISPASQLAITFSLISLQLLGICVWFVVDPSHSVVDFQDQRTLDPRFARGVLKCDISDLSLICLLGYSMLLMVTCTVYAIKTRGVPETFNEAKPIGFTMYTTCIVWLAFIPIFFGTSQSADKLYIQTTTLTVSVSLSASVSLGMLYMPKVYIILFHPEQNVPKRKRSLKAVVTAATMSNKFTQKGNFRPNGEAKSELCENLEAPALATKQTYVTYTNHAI

In experiment [1] the target is Metabotropic glutamate receptor 1 (Homo sapiens, UniProt Q13255). As to the kind of experiment: Agonist activity against Metabotropic glutamate receptor 1 expressed in HEK 293 cells was evaluated by measuring total inositol phosphate accumulation. Type of experiment: functional, cell-based, HEK293.
The target in experiment [2] is Metabotropic glutamate receptor 4 (Homo sapiens, UniProt Q14833). As to the kind of experiment: Agonist activity against Metabotropic glutamate receptor 4 expressed in HEK 293 cells was evaluated by measuring total inositol phosphate accumulation. Type of experiment: functional, cell-based, HEK293.

Molecules are shown by their SMILES. Some results are limits rather than exact numbers.

As to `N[C@]1(C(=O)O)CC[C@@H](C(=O)O)C1`, the EC50 in experiment [1] was greater than 1000 µM.
On to `N[C@@]1(C(=O)O)CC[C@H](C(=O)O)C1`, for which the EC50 is greater than 300 µM in experiment [1] and 48 µM in experiment [2].
For the molecule `N[C@@]1(C(=O)O)CC[C@@H](C(=O)O)C1`, the EC50 in experiment [1] is 9.3 µM; in experiment [2], greater than 1000 µM.
As to `N[C@]1(C(=O)O)CC[C@H](C(=O)O)C1`, the EC50 in experiment [1] was 127 µM; in experiment [2] it was greater than 1000 µM.

What is called EC50 is the concentration that produces a half-maximal response. A high value points to weaker potency.
